Laboratory results as given in patent EP4834341A1, “PHARMACEUTICAL COMPOSITION AND METHOD FOR TREATING AND/OR PREVENTING CORNEAL INJURY” (dated 2026).

Assays:
[1] = test system: BAC eye drop-induced mouse model; experiment: Corneal fluorescein staining in BAC eye drop-induced mouse model; settings: 7,8-DHF orally twice per day 100 mg/kg from Day 3 of 0.1% BAC, 7 days; scored Day 5 and Day 10; compared with the model group (FIG. 1)
Procedure: (§1) Example 1: Testing the effects of 7,8-DHF on corneal epithelial injury, neurotrophic keratitis, and dry eye disease in a BAC eye drop-induced mouse model.
(§2) Normal control group: Mice received topical administration of 5 µL saline to each eye twice daily for 7 consecutive days.
(§3) Model group: Mice received topical administration of 5 µL 0.1 % BAC to each eye twice daily for 7 consecutive days.
(§4) 7,8-DHF treatment group: Mice received topical administration of 5 µL 0.1% BAC to each eye twice daily for 7 consecutive days. Starting from Day 3 of 0.1% BAC administration, 7,8-DHF was administered orally twice per day at a dose of 100 mg/kg body weight with an administration volume of 10 µL/g, and the 7,8-DHF treatment lasted for 7 days.
Corneal Fluorescein Staining: Designating the first day of adiministration to the model group as Day 1. Corneal fluorescein staining was performed on Day 5 and Day 10 for the model group, treatment group, and normal control group, respectively. The staining procedure was as follows: after mice were anesthetized, 5 µL of 0.1% sodium fluorescein was instilled into each eye of the mice, the eyes were kept closed for several seconds to allow the sodium fluorescein to distribute as evenly as possible across the cornea, and then observed under a slit lamp. The cornea was divided into four regions, and scores were recorded for each region. […]

[2] = test system: BAC eye drop-induced mouse model; experiment: Tear test (phenol red thread) in BAC eye drop-induced mouse model; settings: 100 mg/kg orally twice per day
Procedure: as §1, §2, §3, §4
Tear testing method: Designating the first day of adiministation to the model group as Day 1. Tear tests were performed on Days 5 and Day 10 for the model group, treatment group, and normal control group, respectively. The testing method was as follows: After being anesthesiad, the mouse lower eyelid was gently pulled open, and a phenol red thread was inserted into the outer third of the eyelid using forceps. Timing began immediately, and after 1 minute, the length of the reddened cotton thread was measured and recorded.

[3] = test system: mouse corneal alkali burn model; experiment: Corneal nerve density in mouse corneal alkali burn model (GFP transgenic mice, fluorescence microscopy, Image J); settings: 50 mg/kg once daily, one week, quantified with Image J, versus model group (FIG. 5)
Procedure: Example 2: Testing the effects of 7,8-DHF on corneal nerve protection and promotion of corneal nerve growth in a mouse corneal alkali burn model
• A. Preparation of an alkali burn solution: 0.4 g of sodium hydroxide powder was weighed and dissolved in 10 mL of deionized water. • B. Mouse corneal alkali burn model: Filter paper discs with a diameter of 2 mm were prepared. After the mice were anesthesiad, 1 µL of the alkali solution was applied onto the filter paper discs. Once the filter paper discs were completely soaked with the alkali solution, they were placed onto the center of the cornea. After 8 seconds, the filter paper discs were immediately removed, and the eyeballs were rinsed with 10 mL of PBS.
7,8-DHF Treatment: Administration was initiated after modeling, once daily, at a dose of 50 mg/kg. […] The entire cornea was harvested to prepare flat wholemounts, which were then imaged under a fluorescence microscope.
In Example 2 of the present disclosure, transgenic mice were used. The corneal nerves of the transgenic mice specifically express green fluorescent protein, and thus the distribution of corneal nerves can be marked by green fluorescence signals. […]
(§5) Images were acquired using a fluorescence microscope. After corneal nerve density was analyzed and quantified using the image analysis software Image J, intergroup statistical comparison was performed.

[4] = test system: mouse corneal epithelial abrasion model; experiment: Corneal nerve density in mouse corneal epithelial abrasion model (GFP transgenic mice, fluorescence microscopy, Image J); settings: 50 mg/kg once daily, one week
Procedure: Example 3: Testing the effects of 7,8-DHF on corneal nerve protection and promotion of corneal nerve growth in a mouse corneal epithelial abrasion model.
• A. Mouse corneal epithelial abrasion model: After mice were anesthetized, the corneal epithelium was removed to expose the corneal stroma using an electric cornea burr. The wound was horizontally extdented to the limbus. • B. 7,8-DHF Treatment: Administration was initiated after modeling, once daily, at a dose of 50 mg/kg. After 7 days of administration, the mice were subjected to cardiac perfusion and tissue collection. The entire cornea was harvested to prepare flat wholemounts, which were then imaged under a fluorescence microscope.
In Example 3 of the present disclosure, transgenic mice were used. The corneal nerves of the transgenic mice specifically express green fluorescent protein, and thus the distribution of corneal nerves can be visualized by green fluorescence signals. The primary distribution features of corneal nerves are: corneal stromal nerve trunks, subbasal nerve plexus, and intraepithelial nerve terminals.
as §5

O=c1cc(-c2ccccc2)oc2c(O)c(O)ccc12 was tested, and the “corneal fluorescein staining scores” value [1] was “significantly lower”, the tear volume ([2]; after 7 days of 7,8-DHF treatment, versus normal control group (FIG. 2)) was “comparable to that in the normal control group” and the tear volume ([2]; second day after the start of 7,8-DHF treatment, compared to the model group (FIG. 2)) was “increased significantly”. The corneal nerve density [3] was “significantly higher”, the “density of corneal nerve distribution (density of corneal nerve staining signals) at the levels of the corneal stromal nerve trunks, subbasal nerve plexus, and intraepithelial nerve terminals” value ([4]; compared with the model group (FIG. 4)) was “significantly increased” and the corneal nerve density ([4]; quantified with Image J, versus model group (FIG. 6)) was “significantly higher”.
